Source: patent US12509496B2 (Shanghai Minwei Biotechnology Co., LTD, priority 2020, dated 2025)

By UniProt entry, the sequences of proteins in these tests, tags left out. Residues count along the entry.
UniProt P43220, 24-463: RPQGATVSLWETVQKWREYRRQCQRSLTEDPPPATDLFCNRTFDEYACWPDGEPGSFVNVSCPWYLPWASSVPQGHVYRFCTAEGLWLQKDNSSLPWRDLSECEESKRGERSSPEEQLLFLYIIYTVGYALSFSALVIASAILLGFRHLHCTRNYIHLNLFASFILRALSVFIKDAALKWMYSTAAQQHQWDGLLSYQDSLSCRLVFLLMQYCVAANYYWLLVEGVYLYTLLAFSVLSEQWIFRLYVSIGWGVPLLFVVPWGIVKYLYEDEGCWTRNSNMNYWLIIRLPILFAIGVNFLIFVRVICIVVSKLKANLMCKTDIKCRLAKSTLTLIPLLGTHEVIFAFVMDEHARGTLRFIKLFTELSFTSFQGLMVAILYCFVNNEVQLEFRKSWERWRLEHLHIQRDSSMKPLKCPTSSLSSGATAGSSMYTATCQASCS

Target: T1, human GLP-1R (Homo sapiens, UniProt P43220)
T1 construct: expressed in transfected cells; host or cells: CHO-K1 cells (with CRE-luciferase reporter)
Experiment: In vitro GLP-1 activity of fusion proteins, CHO-K1 CRE-luciferase
Assay type: cell-based
Conditions: read-out: EC50 human GLP-1R, CHO-K1 cells, 5 hours incubation

- EC50: 15 nM
Substance: Glucagon
